# Laboratory results reported in US4221782A (priority 1978, dated 1980).
# Values joined by “and” are separate entries in the source; they are usually repeats but may differ in a detail not shown here. Equal values may be shown once. Read-outs that look alike come from different tables or passages of the source.
# Columns and labels:
# [1] = system: stickleback; assay: Example 5: mortality of stickleback under the same conditions; conditions: same test conditions as sockeye
# [2] = system: threespine stickleback and chinook salmon; assay: Example 4: selectivity and safety indices, stickleback versus chinook salmon, artesian well water; conditions: for Safety index / Selectivity index: approximate
# [3] = system: threespine stickleback; assay: Example 6: deactivators for azide, survival of stickleback in 12-hour bioassays; format: in vivo, Gasterosteus aculeatus; conditions: potassium azide 20 mg/l, no deactivator; 15 degrees Celsius
# [4] = system: threespine stickleback; conditions: for LC50 / LC100: potassium azide
# [5] = system: sockeye
# [6] = system: sockeye; assay: Example 2: mortality of sockeye, 96-hour bioassay, artesian well water; conditions: for concentration at which no mortality occurred in sockeye: 96-hour assay, artesian well water
# [7] = system: threespine stickleback and steelhead; assay: Example 1: selectivity and safety indices, stickleback versus steelhead; conditions: for Safety index LC0/LC100 / Selectivity index LC50/LC50: steelhead/stickleback, 10° C.
# [8] = system: sockeye; assay: Mortality of sockeye with potassium azide and deactivator, ten-day observation; conditions: for mortality of sockeye: 5 mg/l potassium azide + deactivator; for mortality of salmon: 7 mg/l potassium azide and deactivator
# [9] = system: steelhead; assay: Example 1: mortality of steelhead exposed to potassium azide, 72-hour bioassay, artesian well water, 10° C.
# [10] = system: threespine stickleback; assay: Example 1: mortality of threespine stickleback exposed to potassium azide, 72-hour bioassay, artesian well water, 10° C.; conditions: for percentage mortality of stickleback: 10° C., mg/l by line: b32 2.0, b33 3.0, b35 4.5, b36 7.0, b37 10.0
# [11] = 72-hour assay, 10 degrees Celsius, artesian well water
compound,measurement,setting,value
[N-]=[N+]=[N-] [sodium azide],mortality of stickleback,[1],100%
same,Safety index,"[2]; 5 C., 12 h",2
same,Selectivity index,"[2]; 5 C., 12 h",14
same,Safety index,"[2]; 5 C., 24 h",2
same,Selectivity index,"[2]; 5 C., 24 h",13
same,Safety index,"[2]; 5 C., 48 h",3
same,Selectivity index,"[2]; 5 C., 48 h",19
same,Safety index,"[2]; 5 C., 96 h",6
same,Selectivity index,"[2]; 5 C., 96 h",23
same,Safety index,"[2]; 10 C., 12 h",3
same,Selectivity index,"[2]; 10 C., 12 h",9
same,Safety index,"[2]; 10 C., 24 h",4
same,Selectivity index,"[2]; 10 C., 24 h",12
same,Safety index,"[2]; 10 C., 48 h",6
same,Selectivity index,"[2]; 10 C., 48 h",27
same,Safety index,"[2]; 10 C., 96 h",5
same,Selectivity index,"[2]; 10 C., 96 h",27
same,Safety index,"[2]; 15 C., 12 h",5
same,Selectivity index,"[2]; 15 C., 12 h",10
same,Safety index,"[2]; 15 C., 24 h",5
same,Selectivity index,"[2]; 15 C., 24 h",15
same,Safety index,"[2]; 15 C., 48 h",4
same,Selectivity index,"[2]; 15 C., 48 h",25
same,Safety index,"[2]; 15 C., 96 h",5
same,Selectivity index,"[2]; 15 C., 96 h",14
same,selectivity and safety indices for chinook versus stickleback compared with sockeye and steelhead,[2]; in vivo,correspondingly greater
potassium azide,Survival time,[3],2.3 h
same,percentage mortality of stickleback,"[4]; 15 C, 96 h, mg/l by line: b111 1.0, b112 2.0, b113 2.5, b115 3.0, b117 5.0, b118 7.0, 5760 min",85% and 100%
same,concentration at which 100% mortality of stickleback was achieved,"[4]; 96-hour assay, 5, 10, and 15 degrees Celsius, artesian well water",2 mg/L
same,LC100 of stickleback,"[4]; artesian well water, similar experimental conditions (96-hour, 15 degrees Celsius)",2.00 mg/L
same,LC50,"[4]; 5 C., 12 h",2.0 µg/mL
same,LC100,"[4]; 5 C., 12 h",7.0 mg/L
same,LC50,"[4]; 5 C., 24 h",1.5 µg/mL
same,LC100,"[4]; 5 C., 24 h",5.0 mg/L
same,LC50,"[4]; 5 C., 48 h",1.0 µg/mL
same,LC100,"[4]; 5 C., 48 h",4.0 mg/L
same,LC50,"[4]; 5 C., 96 h",0.8 µg/mL
same,LC100,"[4]; 5 C., 96 h",2.0 mg/L
same,LC50,"[4]; 10 C., 12 h",3.5 µg/mL
same,LC100,"[4]; 10 C., 12 h",6.0 mg/L
same,LC50,"[4]; 10 C., 24 h",2.5 µg/mL
same,LC100,"[4]; 10 C., 24 h",5.0 mg/L
same,LC50,"[4]; 10 C., 48 h",1.0 µg/mL
same,LC100,"[4]; 10 C., 48 h",3.0 mg/L
same,LC50,"[4]; 10 C., 96 h",0.8 µg/mL
same,LC100,"[4]; 10 C., 96 h",2.0 mg/L
same,LC50,"[4]; 15 C., 12 h",3.0 µg/mL
same,LC100,"[4]; 15 C., 12 h",7.0 mg/L
same,LC50,"[4]; 15 C., 24 h",2.0 µg/mL
same,LC100,"[4]; 15 C., 24 h",5.0 mg/L
same,LC50,"[4]; 15 C., 48 h",1.0 µg/mL
same,LC100,"[4]; 15 C., 48 h",5.0 mg/L
same,LC50,"[4]; 15 C., 96 h",0.9 µg/mL
same,LC100,"[4]; 15 C., 96 h",2.0 mg/L
same,"Death time of 10 fish, Mean","[5]; 5 C., 20 mg/l potassium azide",5.7 h
same,"Death time of 10 fish, Range","[5]; 5 C., 20 mg/l potassium azide",3 to 23 h
same,"Death time of 10 fish, Mean","[5]; 15 C., 16 mg/l potassium azide",19.5 h
same,"Death time of 10 fish, Range","[5]; 15 C., 16 mg/l potassium azide",9 to 35 h
same,mean times of death at about equal equivalents,[5]; potassium or sodium azide,about equal mean times of death
same,concentration at which no mortality occurred in sockeye,[6]; 10 degrees Celsius,6000 ng/mL
same,concentration at which no mortality occurred in sockeye,[6]; 15 degrees Celsius,4000 ng/mL
same,concentration at which no mortalities of sockeye would occur,[6]; extrapolation of the 5 degrees Celsius data,4000 ng/mL
same,Safety index LC0/LC100,[7]; 12 h,7
same,Selectivity index LC50/LC50,[7]; 12 h,10
same,Safety index LC0/LC100,[7]; 24 h,5
same,Selectivity index LC50/LC50,[7]; 24 h,10
same,Safety index LC0/LC100,[7]; 36 h,5
same,Selectivity index LC50/LC50,[7]; 36 h,7
same,Safety index LC0/LC100,[7]; 48 h,5
same,Selectivity index LC50/LC50,[7]; 48 h,7
same,Safety index LC0/LC100,[7]; 72 h,2
same,Selectivity index LC50/LC50,[7]; 72 h,5
same,selective lethality,[7]; stickleback versus steelhead,selectively lethal to stickleback at concentrations nonlethal to steelhead
same,mortality of sockeye,[8]; 6 days,no sockeye in the series died
same,mortality of sockeye,[8]; 10 days,40%
same,mortality of salmon,[8]; 4 days,no salmon died
same,mortality of salmon,[8]; 10 days,84%
same,lethal long term effects,[8]; some concentration less than 5 mg/l with subsequent deactivator,no lethal long term effects
same,concentration at which no mortality occurred in steelhead,[9]; [11],below 4.5 mg/l
same,percentage mortality of steelhead,"[9]; 12 h, 10° C., mg/l by line: b39 4.5, b41 10.0, b42 14.0, b43 20.0",0%
same,concentration at which 100% mortality of stickleback was achieved,[10]; [11],2 mg/L
same,percentage mortality of stickleback,"[10]; 12 h, 720 min",90% and 100%
same,percentage mortality of stickleback,[10]; 24 h,100%
same,percentage mortality of stickleback,[10]; 36 h,100%
same,percentage mortality of stickleback,[10]; 48 h,100%
same,percentage mortality of stickleback,[10]; 72 h,100%
